# Screening data as filed in PubChem.
# Shown are actives, neighbours in structure and some others; about 2.8% of the full set was active somewhere.
# Wnt act: Wnt/beta-catenin pathway activators, primary screen, cell-based, plate reader, single point. Wnt/beta-catenin reporter cell assay, activator. activation, % at 9.35 µM. 300,000 compounds, 1.2% hits; in the data active = activation above about 30%, passing the limit was not always enough; inconclusive = no clear call, values can overlap the other calls
# UUG fidelity: modulators of yeast start codon fidelity, primary screen, whole organism, S. cerevisiae, single point, plate reader. S. cerevisiae UUG-firefly luciferase reporter, luminescence/redox ratio. activity score, % at 18.7 µM. hit rate 0.13% among 350,000;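 active = replicate mean at a twofold rise or more, about +100% in these data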;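 also: firefly luciferase made from a UUG start codon reports start codon fidelity; reporter light over untreated wells divided by growth signal over untreated wells; some hits fall short of that in this replicate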
# MITF act: activators of MITF-driven TRPM1 promoter reporter, primary screen, cell-based, SK-MEL-5, luciferase, single point; SK-MEL-5 TRPM1-promoter luciferase, 24 h; % of positive control, neutral wells = 0; activation, % at 12.5 µM; 300,000 compounds, 0.75% hits;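 active = mean activation of at least 80% with every replicate also reaching 80%; inconclusive = mean reaches 80% but some replicate falls short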
# esBAF inh: Bmi1 luciferase reporter increase in mESCs, primary screen, esBAF inhibitor project, mouse ES cells, Bmi1 luciferase knock-in, single point | 24 h; 100% = twice the neutral-well signal | reporter increase, % at 12.5 µM | 350,000 compounds, 2% hits; in the data active = activation above about 40%; inconclusive = no clear call, values can overlap the other calls;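 also: a rise in the Bmi1 reporter signal indicates esBAF inhibition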
# PglD DTNB: C. jejuni PglD acetyltransferase inhibitors, primary screen, biochemical, DTNB colorimetric, single point; UDP-N-acetylbacillosamine N-acetyltransferase PglD (Campylobacter jejuni); purified PglD enzyme, DTNB colorimetric CoA detection; inhibition, % at 12.5 µM; 360,000 compounds, 0.098% hits; AID 602405, 2012; in the data active = inhibition above about 16%, passing the limit was not always enough; inconclusive = no clear call, values can overlap the other calls
# miR122 inh: miR-122 Renilla sensor signal increase in Huh7, primary screen, miR-122 inhibitor project, cell-based, single point, plate reader. Huh7 miR-122 Renilla luciferase sensor, 48 h; neutral wells = 0, positive control = 100. AID 602342, 2012. activation (reporter increase), % at 12.5 µM. 340,000 compounds, 0.3% hits;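 active = mean replicate activation score at least 90 and every replicate individually at or above 90; inconclusive = only one of the two criteria met; inactive = neither criterion met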;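 also: higher luciferase means less miR-122 activity so hits act as miR-122 inhibitors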
# Hits are given with their value; i = inactive; ? = inconclusive; nt = not tested or not shown.
SMILES,Wnt act,UUG fidelity,MITF act,esBAF inh,PglD DTNB,miR122 inh
Oc1ccc(N=Nc2ccccc2)cc1,34,i,91,i,i,i
COc1ccc(S(=O)(=O)N(C)C[C@H]2Oc3c(NS(C)(=O)=O)cccc3C(=O)N([C@H](C)CO)C[C@H]2C)cc1,nt,i,nt,i,i,i
CO[C@@H]1CN(C)C(=O)c2cc(NC(=O)NC(C)C)ccc2OC[C@H](C)N(C(=O)CC2CC2)C[C@H]1C,nt,i,nt,i,i,i
CCC1([N+](=O)[O-])COC(C=Cc2ccccc2)OC1 (centres undefined),i,i,i,54,i,nt
COc1ccc(-c2nc3ccccc3n2Cc2ccccc2)cc1,i,i,i,i,i,i
CCn1c(/C=C/c2ccccc2)nc2ccccc21,nt,i,i,i,i,i
C=CCn1c(-c2ccc(OC)cc2)nc2ccccc21,i,nt,i,41,nt,i
COc1ccc(Cn2c(/C=C/c3ccccc3)nc3ccccc32)cc1,84,i,87,?,i,i
C[C@@H]1CCCCO[C@@H](CN(C)S(C)(=O)=O)[C@H](C)CN([C@H](C)CO)C(=O)c2cc(NC(=O)Cc3ccccc3)ccc2O1,nt,i,nt,i,i,i
COc1ccc(/C(O)=C2/C(=O)C(=O)N(c3ccccn3)C2c2ccc(F)cc2)cc1 (centres undefined),i,i,84,i,i,nt
CN(C)CCN1C(=O)C(=O)/C(=C(/O)c2ccc3c(c2)OCCO3)C1c1ccccn1 (centres undefined),37,nt,i,i,nt,nt
COc1ccc(/C(O)=C2/C(=O)C(=O)N(CCN3CCOCC3)C2c2ccccn2)cc1 (centres undefined),?,i,i,44,i,i
O=C1C(=O)N(CCN2CCOCC2)C(c2ccccn2)/C1=C(/O)c1ccc(F)cc1 (centres undefined),i,i,i,nt,i,i
COc1cccc(/C(O)=C2/C(=O)C(=O)N(CCN(C)C)C2c2ccccn2)c1 (centres undefined),nt,i,i,i,i,i
Cc1ccc(S(=O)(=O)Nc2ccc3c(c2)C(=O)N([C@H](C)CO)C[C@@H](C)[C@@H](CN(C)C(=O)Cc2ccccc2)OCCCC[C@@H](C)O3)cc1,nt,i,nt,i,i,i
COc1ccccc1-n1nc(C)cc1N,i,i,i,i,i,i
COc1cc2nn(-c3ccccc3N)nc2cc1OC,42,nt,nt,nt,nt,nt
Nc1ccccc1-n1nc2ccc3ccccc3c2n1,55,i,nt,41,i,i
Cc1ccc(S(=O)(=O)Nc2ccc3nc(N)sc3c2)cc1,i,i,i,i,i,268
Cc1ccc2nc(-c3ccc(NS(=O)(=O)c4ccc(F)c(F)c4)cc3)sc2c1,38,nt,i,nt,nt,nt
CC(Cn1cncn1)NC(=O)c1cc(COc2cccc(C(F)(F)F)c2)on1 (centres undefined),i,i,i,i,i,i
CC(NC(=O)c1cc(COc2cccc(C(F)(F)F)c2)on1)c1nccs1 (centres undefined),i,i,i,61,i,i
O=C(c1cc(COc2cccc(C(F)(F)F)c2)on1)N1CCCC1,i,i,nt,70,i,i
C[C@@H]1CN(C(=O)c2cc(COc3cccc(C(F)(F)F)c3)on2)C[C@H](C)O1,i,i,103,57,i,i
CCOC(=O)N1CCN(C(=O)c2cc(COc3cccc(C(F)(F)F)c3)on2)CC1,i,i,i,nt,i,i
SMILES,Wnt act,UUG fidelity,MITF act,esBAF inh,PglD DTNB,miR122 inh
COc1ccc(S(=O)(=O)N(C)C[C@H]2OCCCC[C@@H](C)Oc3ccc(NS(=O)(=O)c4cn(C)cn4)cc3C(=O)N([C@@H](C)CO)C[C@H]2C)cc1,nt,nt,nt,i,i,i
CC(/C=C/c1ccco1)=N/NC(=O)OC(C)(C)C,57,nt,i,nt,nt,nt
CCOc1ccc(OCCOc2ncnc3ccccc23)cc1,nt,i,i,46,i,i
c1ccc(OCCOc2ncnc3sccc23)cc1,42,i,i,nt,i,i
CC(C)NC(=O)Nc1ccc2c(c1)C(=O)N([C@H](C)CO)C[C@H](C)[C@H](CN(C)S(=O)(=O)c1cn(C)cn1)OCCCC[C@@H](C)O2,nt,i,nt,i,i,i
O=C(N/N=C/c1ccccc1Cl)c1cccc(F)c1,40,i,?,53,i,i
O=C(N/N=C/c1c(Cl)cccc1Cl)c1cccc(F)c1,i,nt,i,nt,nt,i
O=C(N/N=C/c1cccc(F)c1)c1csc2c1CCCC2,nt,i,142,50,i,?
CC(C)(C)c1ccc(C(=O)N/N=C/c2ccccn2)cc1,i,i,i,i,i,i
Cc1cccc(/C=N/NC(=O)c2ccc(Br)cc2)c1,nt,i,i,59,i,i
O=C(N/N=C/c1ccccc1F)c1csc2c1CCCC2,nt,i,i,nt,i,i
CC(C)(C)c1ccc(C(=O)N/N=C/c2cccc(Cl)c2)cc1,?,i,nt,54,i,i
O=C(CN1CCN(Cc2ccc(Cl)cc2)CC1)N/N=C/c1cccs1,i,i,nt,nt,i,i
O=C(CN1CCN(Cc2ccc(Cl)cc2)CC1)N/N=C/c1cccc(F)c1,43,i,nt,nt,i,i
O=C(N/N=C/c1cccc(NC(=O)c2ccc(Cl)cc2)c1)c1ccc(O)cc1,i,nt,i,?,nt,i
O=C(N/N=C/c1cccc(F)c1)c1ccc(Cl)cc1,i,nt,96,69,nt,i
CO[C@@H]1CN(C)C(=O)c2ccc(NS(=O)(=O)c3ccccc3C)cc2OC[C@H](C)NC[C@@H]1C,nt,i,nt,i,i,i
CC(=O)N(C)C[C@H]1Oc2ncc(-c3ccc(C#N)cc3)cc2C(=O)N([C@@H](C)CO)C[C@@H]1C,nt,i,nt,i,i,i
CC(=O)c1cccc(NC(=O)c2cnn(-c3ccccc3)c2C)c1,i,i,?,i,i,i
Cc1c(C(=O)Nc2ccccc2)cnn1-c1ccccc1,63,nt,i,nt,nt,nt
Cc1c(C(=O)Nc2cccc(F)c2)cnn1-c1ccccc1,i,i,109,i,i,i
Cc1nn(C)cc1NC(=O)C[C@@H]1CC[C@@H]2[C@@H](COc3ccc(NC(=O)C(C)C)cc3C(=O)N2C)O1,nt,i,nt,i,i,i
Cc1ccc(NC(=O)CCc2c(C)nn(-c3ccc(N4CCCCC4)nn3)c2C)cc1F,i,i,i,69,i,i
Cc1nn(-c2ccc(N3CCCCC3)nn2)c(C)c1CCC(=O)Nc1cccc(F)c1,i,i,97,64,i,i
Cc1ccc(C)c(NC(=O)CCc2c(C)nn(-c3ccc(N4CCCCC4)nn3)c2C)c1,i,i,i,i,i,i
